According to paper PMC7824787, “Design, Synthesis and In Vitro Investigation of Novel Basic Celastrol Carboxamides as Bio-Inspired Leishmanicidal Agents Endowed with Inhibitory Activity against Leishmania Hsp90” (Biomolecules, 2021):

System: L. infantum amastigotes
Assay: Antileishmanial activity on intramacrophage amastigotes of L. infantum
Type: cell-based, Leishmania infantum
Settings: ratio IC50 on THP-1 cell line / IC50 toward L. infantum amastigotes
Protocol: Cell monolayers were then washed and incubated in the presence of test compounds for 72 h. Slides were fixed with methanol and stained with Giemsa. The percentage of infected macrophages in treated and non-treated cells was determined by light microscopy.

Row | Structure (SMILES) | S.I. (selectivity index)
1 | CC1=C(O)C(=O)C=C2C1=CC=C1[C@@]2(C)CC[C@@]2(C)[C@@H]3C[C@](C)(C(=O)NCCN4CCCCC4)CC[C@]3(C)CC[C@]12C [compound 1, (2R,4aS,6aS,12bR,14aS,14bR)-10-hydroxy-2,4a,6a,9,12b,14a-hexamethyl-11-oxo-N-(2-(piperidin-1-yl)ethyl)-1,2,3,4,4a,5,6,6a,11,12b,13,14,14a,14b-tetradecahydropicene-2-carboxamide] | 11
2 | CC1=C(O)C(=O)C=C2C1=CC=C1[C@@]2(C)CC[C@@]2(C)[C@@H]3C[C@](C)(C(=O)NCCN4CCCC4)CC[C@]3(C)CC[C@]12C [compound 3, (2R,4aS,6aS,12bR,14aS,14bR)-10-hydroxy-2,4a,6a,9,12b,14a-hexamethyl-11-oxo-N-(2-(pyrrolidin-1-yl)ethyl)-1,2,3,4,4a,5,6,6a,11,12b,13,14,14a,14b-tetradecahydropicene-2-carboxamide] | 21
3 | CC1=C(O)C(=O)C=C2C1=CC=C1[C@@]2(C)CC[C@@]2(C)[C@@H]3C[C@](C)(C(=O)NCC45CCCN4CCC5)CC[C@]3(C)CC[C@]12C [compound 5, (2R,4aS,6aS,12bR,14aS,14bR)-N-((hexahydro-1H-pyrrolizin-7a-yl)methyl)-10-hydroxy-2,4a,6a,9,12b,14a-hexamethyl-11-oxo-1,2,3,4,4a,5,6,6a,11,12b,13,14,14a,14b-tetradecahydropicene-2-carboxamide] | 3.6
4 | CC1=C(O)C(=O)C=C2C1=CC=C1[C@@]2(C)CC[C@@]2(C)[C@@H]3C[C@](C)(C(=O)NCCNc4ccnc5cc(Cl)ccc45)CC[C@]3(C)CC[C@]12C [compound 6, (2R,4aS,6aS,12bR,14aS,14bR)-N-(2-((7-chloroquinolin-4-yl)amino)ethyl)-10-hydroxy-2,4a,6a,9,12b,14a-hexamethyl-11-oxo-1,2,3,4,4a,5,6,6a,11,12b,13,14,14a,14b-tetradecahydropicene-2-carboxamide] | 1.3
